Among the data in ChEMBL document CHEMBL1156201, “2-MeS-beta,gamma-CCl2-ATP is a potent agent for reducing intraocular pressure” (J Med Chem, 2010) are EC50 values, retold here.

Protein sequences, listed by entry. Tags and fused reporters are not part of them. Lines headed by an entry give the natural chain unless they say otherwise; changes in a name come on top.
UniProt P49652: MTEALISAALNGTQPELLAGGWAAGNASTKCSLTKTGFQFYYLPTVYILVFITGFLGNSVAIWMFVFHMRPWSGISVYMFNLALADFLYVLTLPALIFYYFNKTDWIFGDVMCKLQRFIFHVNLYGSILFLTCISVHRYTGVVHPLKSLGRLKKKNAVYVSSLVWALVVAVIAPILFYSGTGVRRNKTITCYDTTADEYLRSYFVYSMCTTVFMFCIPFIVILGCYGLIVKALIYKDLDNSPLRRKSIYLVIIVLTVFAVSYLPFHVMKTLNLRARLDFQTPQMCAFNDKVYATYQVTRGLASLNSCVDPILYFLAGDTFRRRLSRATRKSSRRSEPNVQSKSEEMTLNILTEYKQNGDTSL

pEC50: −log10 of the molar value.

The test has as its target P2Y purinoceptor 1 (Meleagris gallopavo, UniProt P49652). Nature of the test: Agonist activity at turkey P2Y1 receptor expressed in human […] receptor assessed as induction of intracellular calcium mobilization. Type of test: functional, cell-based. An outline of the steps:
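1321N1 astrocytoma cells stably expressing turkey P2Y1, grown in DMEM with 5% FBS and G-418. Fura-2-loaded cell suspensions were treated at 37 °C in 10 mM HEPES-buffered saline (pH 7.4) with 1 mM CaCl2 and 1 mM MgCl2. Maximal [Ca2+]i rise was read by dual-excitation spectrofluorometry across concentrations, and EC50 was fitted from the curves. Three experiments in triplicate.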
(Calcium flux is commonly read through the fluorescence of an indicator in the cells.)

The pEC50 is the EC50 on a negative log10 scale, so that one unit is a factor of ten. Regarding `CSc1nc(N)c2ncn([C@@H]3O[C@H](COP(=O)(O)OP(=O)(O)O)[C@@H](O)[C@H]3O)c2n1`, the pEC50 is 8.60.
